In PubChem BioAssay AID2550 (Johns Hopkins Ion Channel Center, 2010) one finds outcome data, which are given here for 24 molecules.

Sequences of proteins named here, by UniProt entry; tags and fusion partners are left off.
UniProt Q61143, whole entry: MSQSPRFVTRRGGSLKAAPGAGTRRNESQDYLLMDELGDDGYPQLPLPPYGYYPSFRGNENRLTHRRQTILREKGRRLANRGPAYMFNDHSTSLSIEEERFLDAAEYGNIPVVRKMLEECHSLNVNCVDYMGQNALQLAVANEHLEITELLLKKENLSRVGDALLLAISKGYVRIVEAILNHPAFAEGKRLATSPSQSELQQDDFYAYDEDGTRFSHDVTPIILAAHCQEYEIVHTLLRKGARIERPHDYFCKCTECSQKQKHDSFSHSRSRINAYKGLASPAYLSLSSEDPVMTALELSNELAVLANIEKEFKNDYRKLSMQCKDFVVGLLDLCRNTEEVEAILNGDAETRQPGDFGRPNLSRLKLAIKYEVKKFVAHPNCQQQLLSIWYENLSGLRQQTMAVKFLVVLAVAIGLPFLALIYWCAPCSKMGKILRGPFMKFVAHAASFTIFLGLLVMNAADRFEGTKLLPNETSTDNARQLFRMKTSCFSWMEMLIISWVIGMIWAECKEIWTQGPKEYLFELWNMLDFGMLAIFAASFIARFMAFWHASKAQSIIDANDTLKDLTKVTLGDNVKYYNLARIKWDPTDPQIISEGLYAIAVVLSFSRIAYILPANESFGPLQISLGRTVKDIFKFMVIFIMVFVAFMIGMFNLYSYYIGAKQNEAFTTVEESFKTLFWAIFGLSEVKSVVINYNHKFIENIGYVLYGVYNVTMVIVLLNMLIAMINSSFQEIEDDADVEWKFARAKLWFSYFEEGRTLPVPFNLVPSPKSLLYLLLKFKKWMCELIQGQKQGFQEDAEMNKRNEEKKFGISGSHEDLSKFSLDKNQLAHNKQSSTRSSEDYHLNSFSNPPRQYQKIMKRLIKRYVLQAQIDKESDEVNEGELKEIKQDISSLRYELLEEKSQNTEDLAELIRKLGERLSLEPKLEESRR

The list shows a part of the results, in another mix than the full data. Some of these compounds have results that are not shown, active ones among them. Activity calls are given as the source filed them.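 Rule for the calls: active = B-score of the integrated fluorescence ratio above library mean plus 3 SD, and starting fluorescence ratio within library mean plus 5 SD; inactive = the rest.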

This assay addresses Short transient receptor potential channel 6 (Mus musculus) (UniProt Q61143). The assay is described as follows: mouse TRPC6 channel activators, primary screen, cell-based, HEK293, membrane potential dye (AID 2550).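 Note: higher score means more depolarization so channel activation.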 The settings on record: HEK293-TRPC6 membrane potential dye fluorescence; at 10 µM.
In the case of `O=C(NCC1(N2CCCCC2)CCCCC1)c1cc([N+](=O)[O-])ccc1Cl`, the molecule was classed as inactive.

On to `CN1[C@@H]2CC[C@H]1CC(OC(=O)C(O)(c1ccccc1)c1ccccc1)C2` (some centres undefined), for which the result was inactive.

Turning to `CCN(CC)CC(C)C(C)OC(=O)C(O)(c1ccccc1)c1ccccc1` (centres undefined), the molecule was called inactive.

Consider `COc1cc(SC)ccc1C(=O)NCC1(N(C)C)CCCCC1`, for which the call was inactive.

`CC(C)N1C(=O)CC2(CCN(CCOC(=O)C(O)(c3ccccc3)c3ccccc3)CC2)C1=O`: the result was inactive.

Consider `Cc1ccc(C(=O)NCC2(N3CCCCC3)CCCCC2)cc1`, for which the outcome was inactive.

Consider `Cc1ccccc1C(=O)NCC1(N2CCCCC2)CCCCC1`, for which the molecule was classed as inactive.

Take `CN(C)c1ccc(C(=O)NCC2(N(C)C)CCCCC2)cc1`: the molecule was classed as inactive.

As for `CN(C)C1CCCC1OC(=O)C(O)(c1ccccc1)c1ccccc1` (centres undefined), the call was inactive.

`C=CCN1CCN(CCOC(=O)C(O)(c2ccccc2)c2ccccc2)CC1`: the result was inactive.

As to `O=C(NCC1(N2CCCCC2)CCCCC1)c1cc(F)c(F)cc1Cl`, the call was inactive.

`COc1ccc(C(=O)NCC2(N(C)C)CCCCC2)cc1`: the molecule was classed as inactive.

On to `CCN1CCCC(OC(=O)C2(O)c3ccccc3C=Cc3ccccc32)C1` (centres undefined), for which the call was inactive.

With `Cc1cc(C(=O)NCC2(N3CCCCC3)CCCCC2)ccc1[N+](=O)[O-]`, the call was inactive.

Regarding `O=C(NCC1(N2CCCCC2)CCCCC1)c1cccc(Br)c1`, the outcome was inactive.

As for `CN(C)C1(CNC(=O)c2ccc(Br)cc2)CCCCC1`, the molecule was classed as inactive.

For `COc1cc(C(=O)NCC2(N(C)C)CCCCC2)c([N+](=O)[O-])cc1OC`, the outcome was inactive.

With `COc1cccc(C(=O)NCC2(N3CCCCC3)CCCCC2)c1`, the molecule was called inactive.

In the case of `COc1ccc(Cl)cc1C(=O)NCC1(N(C)C)CCCCC1`, the molecule was classed as inactive.

In the case of `O=C(NCC1(N2CCCCC2)CCCCC1)c1cccc(Cl)c1`, the result was inactive.

As to `O=C(OC1CN2CCC1CC2)C(CO)(c1ccccc1)c1ccccc1` (centres undefined), the call was inactive.

Turning to `COc1ccc(Br)c(C(=O)NCC2(N3CCCCC3)CCCCC2)c1`, the outcome was inactive.

For the molecule `CC(C)Oc1ccc(C(=O)NCC2(N(C)C)CCCCC2)cc1`, the call was inactive.

For `CN(C)c1cccc(C(=O)NCC2(N(C)C)CCCCC2)c1`, the result was inactive.
